How the values were obtained:
[1] = tested on: CC1(C)S[C@@H]2[C@H](NC(=O)[C@H](N)c3ccccc3)C(=O)N2[C@H]1C(=O)O; test: purified protein; conditions: acylates Ser70
[2] = tested on: CC(=O)OCC1=C(C(=O)O)N2C(=O)[C@@H](NC(=O)Cc3cccs3)[C@H]2SC1; test: purified protein; conditions: acylates Ser70

## KPC-2 (Klebsiella pneumoniae)
[1]
  Km: 270 µM
  kcat: 82 s⁻¹
  kcat/Km: 300000 M⁻¹ s⁻¹
[2]
  kcat/Km: 2.7e+06 M⁻¹ s⁻¹

— paper PMC10080687, “Tautomer-Specific Deacylation and Ω-Loop Flexibility Explain the Carbapenem-Hydrolyzing Broad-Spectrum Activity of the KPC-2 β-Lactamase” (Journal of the American Chemical Society, 2023)
